pKi: −log10 of the molar value.
Target: Metallo-beta-lactamase type 2 (Bacteria, UniProt C7C422)
Experiment: biochemical

Amino acid sequences for entries named in this document (tags omitted). A change or cut given only in a name is not applied to a line headed by its entry.
UniProt C7C422: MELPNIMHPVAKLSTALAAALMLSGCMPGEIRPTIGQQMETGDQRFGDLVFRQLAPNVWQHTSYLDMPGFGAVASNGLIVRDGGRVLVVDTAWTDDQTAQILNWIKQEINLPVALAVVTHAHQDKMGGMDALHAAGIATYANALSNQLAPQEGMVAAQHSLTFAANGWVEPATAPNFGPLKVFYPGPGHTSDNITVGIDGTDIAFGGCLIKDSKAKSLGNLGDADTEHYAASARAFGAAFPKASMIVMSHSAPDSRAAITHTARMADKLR

- pKi: 3.92
SMILES: CN(C)C(=O)c1ccc(CNCc2ccc(O)c(C(=O)O)c2)s1

From ChEMBL document CHEMBL5532662, “Exploiting the Carboxylate-Binding Pocket of β-Lactamase Enzymes Using a Focused DNA-Encoded Chemical Library” (J Med Chem, 2024)
